The values that follow come from article PMC5147500.

The experiment concerns the target Full-length retromer complex (VPS26-VPS29-VPS35) (UniProt O75436). As to the kind of experiment: SEC-MALS.

In turn, “Full-length retromer complex (VPS26-VPS29-VPS35) (from UniProt O75436-1 1-327; Q9UBQ0 1-182; Q96QK1 1-796)” showed a stoichiometry N of 2.

The stoichiometry N is the number of molecules, sites or subunits per partner or assembly.
